Like-named read-outs stand apart in the source and are kept apart here.
Legend:
[1] = human plasma; for k RS, enantiomerization h-R-pio to h-S-pio / k SR, enantiomerization h-S-pio to h-R-pio: fitted
[2] = mouse plasma; for k RS, enantiomerization h-R-pio to h-S-pio / k SR, enantiomerization h-S-pio to h-R-pio: fitted
[3] = tested on: db/db mice; assay: db/db mouse model of type II diabetes, 10-day daily oral dosing; details: for decrease of serum amyloid A: 10 days daily oral, d-R-pio 20 mg/kg, h-rac-pio 30 mg/kg, vs. vehicle; for serum triglycerides: 20 mg/kg daily oral gavage, 10 days, compared with h-rac-pio 30 mg/kg
[4] = average of the h-S and h-R fits, fixed in the d-rac analysis

Compound	decrease of serum amyloid A [3]	serum triglycerides [3]	k RS, enantiomerization h-R-pio to h-S-pio ([1]; 37° C.)	k SR, enantiomerization h-S-pio to h-R-pio ([1]; 37° C.)	k RS, enantiomerization h-R-pio to h-S-pio ([2]; 37° C.)	k SR, enantiomerization h-S-pio to h-R-pio ([2]; 37° C.)	further results
[2H]C1(Cc2ccc(OCCc3ccc(CC)cn3)cc2)SC(=O)NC1=O (racemic) [d-rac-pio]							k DRR, D/H exchange d-R-pio to h-R-pio ([1]; 37° C.): 7.58e-06 s⁻¹; k DRS, D/H exchange d-R-pio to h-S-pio ([1]; 37° C.): 4.61e-05 s⁻¹; k DSR, D/H exchange d-S-pio to h-R-pio ([1]; 37° C.): 4.5e-05 s⁻¹; k DSS, D/H exchange d-S-pio to h-S-pio ([1]; 37° C.): 5.81e-05 s⁻¹; k RS*, enantiomerization h-R-pio to h-S-pio [1, 4]: 0.440 h⁻¹; k SR*, enantiomerization h-S-pio to h-R-pio [1, 4]: 0.433 h⁻¹; k DRR, D/H exchange d-R-pio to h-R-pio ([2]; 37° C.): 6.06e-05 s⁻¹; k DRS, D/H exchange d-R-pio to h-S-pio ([2]; 37° C.): 3.92e-05 s⁻¹; k DSR, D/H exchange d-S-pio to h-R-pio ([2]; 37° C.): 3.28e-05 s⁻¹; k DSS, D/H exchange d-S-pio to h-S-pio ([2]; 37° C.): 0.0002883 s⁻¹; k RS*, enantiomerization h-R-pio to h-S-pio [2, 4]: 0.743 h⁻¹; k SR*, enantiomerization h-S-pio to h-R-pio [2, 4]: 0.924 h⁻¹
CCc1ccc(CCOc2ccc(CC3SC(=O)NC3=O)cc2)nc1 (racemic) [h-rac-pio, rac-5-({p-[2-(5-Ethyl-2-pyridyl)ethoxy]phenyl}methyl)-1,3-thiazolidine-2,4-dione, reference compound]	statistically significant						
[2H][C@]1(Cc2ccc(OCCc3ccc(CC)cn3)cc2)SC(=O)NC1=O [d-R-pio, (R)-5-({p-[2-(5-Ethyl-2-pyridyl)ethoxy]phenyl}methyl)-(5-^2H)-1,3-thiazolidine-2,4-dione]	statistically significant	The same was observed					
[2H][C@@]1(Cc2ccc(OCCc3ccc(CC)cn3)cc2)SC(=O)NC1=O [d-S-pio, (S)-5-({p-[2-(5-Ethyl-2-pyridyl)ethoxy]phenyl}methyl)-(5-^2H)-1,3-thiazolidine-2,4-dione]		The same was observed					
CCc1ccc(CCOc2ccc(C[C@H]3SC(=O)NC3=O)cc2)nc1 [h-R-pio, reference compound]			0.447 h⁻¹	0.439 h⁻¹	0.694 h⁻¹	0.867 h⁻¹	
CCc1ccc(CCOc2ccc(C[C@@H]3SC(=O)NC3=O)cc2)nc1 [h-S-pio, reference compound]			0.434 h⁻¹	0.427 h⁻¹	0.792 h⁻¹	0.979 h⁻¹	
